Results published in ChEMBL document CHEMBL2396646, “N-Acyl-N'-arylpiperazines as negative allosteric modulators of mGlu1: identification of VU0469650, a potent and selective tool compound with CNS exposure in rats” (Bioorg Med Chem Lett, 2013).

Tests used:
[1] = Selectivity ratio of IC50 for rat mGluR5 to IC50 for human mGluR1
Homo sapiens [2] = species: Homo sapiens; experiment: Selectivity ratio of mGluR8 (unknown origin) to human mGluR1
Homo sapiens [3] = species: Homo sapiens; experiment: Selectivity ratio of mGluR6 (unknown origin) to human mGluR1
Homo sapiens [4] = species: Homo sapiens; experiment: Selectivity ratio of mGluR7 (unknown origin) to human mGluR1
Homo sapiens [5] = species: Homo sapiens; experiment: Selectivity ratio of mGluR4 (unknown origin) to human mGluR1
Homo sapiens [6] = species: Homo sapiens; experiment: Selectivity ratio of mGluR5 (unknown origin) to human mGluR1
Homo sapiens [7] = species: Homo sapiens; experiment: Selectivity ratio of mGluR2 (unknown origin) to human mGluR1
Homo sapiens [8] = species: Homo sapiens; experiment: Selectivity ratio of mGluR3 (unknown origin) to human mGluR1

SMILES | Ratio IC50 [1] | Selectivity ratio (Homo sapiens [2]) | Selectivity ratio (Homo sapiens [3]) | Selectivity ratio (Homo sapiens [4]) | Selectivity ratio (Homo sapiens [5]) | Selectivity ratio (Homo sapiens [6]) | Selectivity ratio (Homo sapiens [7]) | Selectivity ratio (Homo sapiens [8])
C[C@@H]1CN(C(=O)C23CC4CC(CC(C4)C2)C3)CCN1c1ccccn1 | > 60 | – | – | – | – | – | – | –
C[C@@H]1CN(c2ccccn2)CCN1C(=O)C12CC3CC(CC(C3)C1)C2 | > 60 | – | – | – | – | – | – | –
C[C@@H]1CN(c2cccnc2C#N)CCN1C(=O)C12CC3CC(CC(C3)C1)C2 | – | 100 | 100 | 100 | 100 | 100 | 100 | 100
